# Laboratory results reported in patent US5723606A, “Condensed benzazepine derivative and pharmaceutical composition thereof” (priority 1993, dated 1998).
# Sequences of proteins named here, by UniProt entry; tags and fusion partners are left off. Residues count along the entry.
# UniProt G1TA00, 78-446: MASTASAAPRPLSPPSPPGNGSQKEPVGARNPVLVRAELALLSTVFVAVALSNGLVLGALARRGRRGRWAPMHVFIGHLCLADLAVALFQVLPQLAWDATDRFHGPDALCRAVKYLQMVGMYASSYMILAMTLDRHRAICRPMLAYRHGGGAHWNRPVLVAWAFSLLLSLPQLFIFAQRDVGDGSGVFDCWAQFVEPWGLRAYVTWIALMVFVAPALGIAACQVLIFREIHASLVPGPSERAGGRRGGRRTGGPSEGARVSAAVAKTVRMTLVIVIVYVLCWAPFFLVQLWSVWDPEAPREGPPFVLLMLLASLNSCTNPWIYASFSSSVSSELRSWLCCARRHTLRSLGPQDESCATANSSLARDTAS
# Target: arginine vasopressin V2 receptor (Oryctolagus cuniculus, UniProt G1TA00)
# Assay: V2 receptor binding assay
# Conditions: rabbit renal medulla membrane, [3H]-Arg-vasopressin 2 nM
structure (smiles),measurement,value
"CC(=O)NCCCOc1ccc(C(=O)N2CCC(N3C(=O)CCc4ccccc43)CC2)cc1 [(2), reference compound]",Binding activity on arginine vasopressin V2 receptor (pki),4.29
